Laboratory results: publication PMC13107563 (Protein & Cell, 2025)
pEC50: −log10 of the molar value.

Amino acid sequences for entries named in this document (tags omitted).
UniProt Q9GZQ6, whole entry D103A: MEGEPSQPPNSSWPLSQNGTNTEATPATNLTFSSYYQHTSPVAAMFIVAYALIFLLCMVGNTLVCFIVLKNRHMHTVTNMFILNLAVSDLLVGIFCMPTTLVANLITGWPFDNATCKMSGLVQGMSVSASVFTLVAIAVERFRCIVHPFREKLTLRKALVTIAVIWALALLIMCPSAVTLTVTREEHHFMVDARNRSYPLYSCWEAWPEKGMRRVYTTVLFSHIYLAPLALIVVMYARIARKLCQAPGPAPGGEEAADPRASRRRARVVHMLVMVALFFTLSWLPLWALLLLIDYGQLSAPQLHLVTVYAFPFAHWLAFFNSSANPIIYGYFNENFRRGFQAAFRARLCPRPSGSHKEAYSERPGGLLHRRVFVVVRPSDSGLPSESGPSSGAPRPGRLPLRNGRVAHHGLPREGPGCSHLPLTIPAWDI
UniProt Q9GZQ6, whole entry S202A: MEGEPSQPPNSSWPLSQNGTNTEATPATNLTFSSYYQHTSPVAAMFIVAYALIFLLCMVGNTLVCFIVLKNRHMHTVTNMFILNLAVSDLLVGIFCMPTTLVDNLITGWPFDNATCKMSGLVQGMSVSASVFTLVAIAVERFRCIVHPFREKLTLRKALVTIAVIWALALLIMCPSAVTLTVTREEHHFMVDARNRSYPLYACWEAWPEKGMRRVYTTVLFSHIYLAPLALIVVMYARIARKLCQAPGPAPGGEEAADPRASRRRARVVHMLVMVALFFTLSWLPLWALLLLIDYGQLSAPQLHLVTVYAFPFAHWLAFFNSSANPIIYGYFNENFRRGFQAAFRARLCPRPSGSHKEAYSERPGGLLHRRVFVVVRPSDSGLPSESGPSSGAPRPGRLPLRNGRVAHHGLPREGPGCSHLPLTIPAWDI
UniProt Q9GZQ6, whole entry Y216A: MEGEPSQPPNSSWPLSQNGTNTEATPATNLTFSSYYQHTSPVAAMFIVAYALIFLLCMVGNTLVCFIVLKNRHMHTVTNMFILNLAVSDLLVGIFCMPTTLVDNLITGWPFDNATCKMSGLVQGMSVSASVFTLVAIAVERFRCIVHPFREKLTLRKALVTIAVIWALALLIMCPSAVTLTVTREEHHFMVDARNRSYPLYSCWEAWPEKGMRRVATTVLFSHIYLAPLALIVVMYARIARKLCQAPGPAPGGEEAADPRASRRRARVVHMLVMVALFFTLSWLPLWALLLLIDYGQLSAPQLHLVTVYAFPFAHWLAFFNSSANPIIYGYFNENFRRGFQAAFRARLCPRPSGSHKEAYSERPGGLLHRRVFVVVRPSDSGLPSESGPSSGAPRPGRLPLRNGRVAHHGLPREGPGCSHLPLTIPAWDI
UniProt Q9GZQ6, whole entry W287F: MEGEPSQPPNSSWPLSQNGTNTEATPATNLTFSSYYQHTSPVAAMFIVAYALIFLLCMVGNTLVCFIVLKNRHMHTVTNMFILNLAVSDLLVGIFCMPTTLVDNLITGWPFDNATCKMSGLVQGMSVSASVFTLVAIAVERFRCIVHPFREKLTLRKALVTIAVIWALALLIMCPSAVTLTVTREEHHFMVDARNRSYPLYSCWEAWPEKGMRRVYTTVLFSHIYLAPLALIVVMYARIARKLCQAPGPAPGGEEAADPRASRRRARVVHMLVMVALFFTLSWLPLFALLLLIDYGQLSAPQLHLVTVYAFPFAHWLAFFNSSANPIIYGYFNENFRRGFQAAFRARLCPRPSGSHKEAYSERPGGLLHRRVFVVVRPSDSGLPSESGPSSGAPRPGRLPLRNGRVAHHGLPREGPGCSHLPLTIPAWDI
UniProt Q9GZQ6, whole entry H315A: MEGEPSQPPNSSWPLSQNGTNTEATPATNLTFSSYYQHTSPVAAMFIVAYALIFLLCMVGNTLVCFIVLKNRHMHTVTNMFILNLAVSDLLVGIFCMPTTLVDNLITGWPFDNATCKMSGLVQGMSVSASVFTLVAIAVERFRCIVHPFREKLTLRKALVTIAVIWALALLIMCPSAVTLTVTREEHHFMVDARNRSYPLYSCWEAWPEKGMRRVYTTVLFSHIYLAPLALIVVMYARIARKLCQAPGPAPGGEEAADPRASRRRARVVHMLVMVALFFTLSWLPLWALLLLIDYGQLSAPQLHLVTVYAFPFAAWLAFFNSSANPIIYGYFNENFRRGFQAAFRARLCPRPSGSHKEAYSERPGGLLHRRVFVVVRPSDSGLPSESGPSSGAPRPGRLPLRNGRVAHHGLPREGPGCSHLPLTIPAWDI
UniProt Q9GZQ6, whole entry Q123A: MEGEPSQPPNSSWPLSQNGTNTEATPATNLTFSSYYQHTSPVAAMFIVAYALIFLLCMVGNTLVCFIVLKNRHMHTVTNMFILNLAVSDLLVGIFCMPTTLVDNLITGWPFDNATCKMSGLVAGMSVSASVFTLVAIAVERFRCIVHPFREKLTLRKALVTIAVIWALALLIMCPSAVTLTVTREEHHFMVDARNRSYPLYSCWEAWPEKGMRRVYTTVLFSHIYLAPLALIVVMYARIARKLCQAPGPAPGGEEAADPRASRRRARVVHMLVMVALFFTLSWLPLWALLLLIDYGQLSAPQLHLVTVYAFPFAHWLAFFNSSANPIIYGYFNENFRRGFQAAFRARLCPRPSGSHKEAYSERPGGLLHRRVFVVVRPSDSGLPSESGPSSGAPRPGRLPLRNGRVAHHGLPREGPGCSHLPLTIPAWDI
UniProt Q9GZQ6, whole entry W287L: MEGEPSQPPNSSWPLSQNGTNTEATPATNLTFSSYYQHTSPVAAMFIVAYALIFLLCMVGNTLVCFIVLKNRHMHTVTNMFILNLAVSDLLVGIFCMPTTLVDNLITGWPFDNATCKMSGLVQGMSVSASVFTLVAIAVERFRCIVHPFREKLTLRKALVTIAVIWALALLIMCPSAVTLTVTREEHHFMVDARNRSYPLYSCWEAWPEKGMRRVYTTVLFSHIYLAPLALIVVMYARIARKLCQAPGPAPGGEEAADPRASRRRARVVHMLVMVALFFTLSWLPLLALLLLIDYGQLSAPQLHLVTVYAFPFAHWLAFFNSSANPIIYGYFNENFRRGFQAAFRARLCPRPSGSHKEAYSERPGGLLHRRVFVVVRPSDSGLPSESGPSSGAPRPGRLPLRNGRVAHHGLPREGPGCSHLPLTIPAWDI
UniProt Q9GZQ6, whole entry T100A: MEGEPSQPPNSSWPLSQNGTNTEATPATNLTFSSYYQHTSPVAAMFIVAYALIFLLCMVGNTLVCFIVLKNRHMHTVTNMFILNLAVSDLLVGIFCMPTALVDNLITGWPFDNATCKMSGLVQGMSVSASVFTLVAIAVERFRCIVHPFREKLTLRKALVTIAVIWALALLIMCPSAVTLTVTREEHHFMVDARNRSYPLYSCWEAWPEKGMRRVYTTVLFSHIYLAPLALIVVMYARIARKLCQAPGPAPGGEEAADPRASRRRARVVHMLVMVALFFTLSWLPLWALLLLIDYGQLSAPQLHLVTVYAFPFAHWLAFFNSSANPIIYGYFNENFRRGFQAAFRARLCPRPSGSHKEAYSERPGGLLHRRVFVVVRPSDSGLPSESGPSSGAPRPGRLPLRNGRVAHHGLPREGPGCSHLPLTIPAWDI
UniProt Q9GZQ6, whole entry E185A: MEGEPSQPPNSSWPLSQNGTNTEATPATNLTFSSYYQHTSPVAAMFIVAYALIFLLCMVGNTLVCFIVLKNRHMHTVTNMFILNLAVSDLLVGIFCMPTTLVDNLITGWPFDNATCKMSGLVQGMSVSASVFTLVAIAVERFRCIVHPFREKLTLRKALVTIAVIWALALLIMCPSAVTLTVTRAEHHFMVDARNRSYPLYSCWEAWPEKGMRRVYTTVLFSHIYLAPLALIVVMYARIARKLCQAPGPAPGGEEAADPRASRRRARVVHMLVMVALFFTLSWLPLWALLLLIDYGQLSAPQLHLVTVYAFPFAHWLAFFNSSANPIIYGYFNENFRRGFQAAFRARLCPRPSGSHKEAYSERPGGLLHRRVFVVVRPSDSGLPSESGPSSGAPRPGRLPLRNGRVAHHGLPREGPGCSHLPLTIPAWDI
UniProt Q9GZQ6, whole entry W287A: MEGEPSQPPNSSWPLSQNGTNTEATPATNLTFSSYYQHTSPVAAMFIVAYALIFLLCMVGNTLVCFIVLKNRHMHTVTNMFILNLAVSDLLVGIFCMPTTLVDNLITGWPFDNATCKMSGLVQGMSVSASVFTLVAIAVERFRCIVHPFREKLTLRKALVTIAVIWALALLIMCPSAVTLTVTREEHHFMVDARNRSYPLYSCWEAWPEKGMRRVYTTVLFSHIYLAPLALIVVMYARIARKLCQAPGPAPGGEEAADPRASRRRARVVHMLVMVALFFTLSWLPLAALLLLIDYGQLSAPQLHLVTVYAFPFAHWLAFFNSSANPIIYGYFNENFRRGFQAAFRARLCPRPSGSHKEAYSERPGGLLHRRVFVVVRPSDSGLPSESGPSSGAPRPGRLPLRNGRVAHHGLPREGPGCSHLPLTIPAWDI
UniProt Q9GZQ6, whole entry T217A: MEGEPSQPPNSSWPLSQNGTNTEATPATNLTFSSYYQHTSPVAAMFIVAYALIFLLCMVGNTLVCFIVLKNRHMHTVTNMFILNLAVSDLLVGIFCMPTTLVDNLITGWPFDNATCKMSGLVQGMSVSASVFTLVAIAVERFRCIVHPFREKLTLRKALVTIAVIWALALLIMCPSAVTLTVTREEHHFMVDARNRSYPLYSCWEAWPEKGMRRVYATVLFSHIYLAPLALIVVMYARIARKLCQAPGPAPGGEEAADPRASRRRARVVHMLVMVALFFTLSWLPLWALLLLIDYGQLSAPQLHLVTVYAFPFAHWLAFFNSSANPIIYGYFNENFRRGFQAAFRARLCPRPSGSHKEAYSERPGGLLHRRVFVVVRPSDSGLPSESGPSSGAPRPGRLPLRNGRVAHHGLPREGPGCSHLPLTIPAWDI
UniProt Q9GZQ6, whole entry W204A: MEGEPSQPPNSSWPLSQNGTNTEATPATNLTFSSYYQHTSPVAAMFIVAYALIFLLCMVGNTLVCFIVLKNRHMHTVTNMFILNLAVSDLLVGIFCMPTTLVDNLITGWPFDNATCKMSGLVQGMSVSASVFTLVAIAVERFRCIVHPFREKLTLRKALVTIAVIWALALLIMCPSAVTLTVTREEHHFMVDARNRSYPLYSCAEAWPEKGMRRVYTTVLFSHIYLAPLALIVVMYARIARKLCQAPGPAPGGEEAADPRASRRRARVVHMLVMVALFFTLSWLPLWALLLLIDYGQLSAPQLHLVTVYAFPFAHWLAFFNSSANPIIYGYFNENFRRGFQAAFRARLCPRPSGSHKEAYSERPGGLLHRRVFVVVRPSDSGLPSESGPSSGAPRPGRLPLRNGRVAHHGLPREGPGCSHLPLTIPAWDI

What was measured:
Format in all cases: cell-based
NPFFR1 D103A = target: T1, NPFFR1 D103A (Homo sapiens, UniProt Q9GZQ6, D103A); assay: GloSensor cAMP accumulation assay, NPFFR1 D103A; details: HEK293T, Gi signaling, mean ± S.E.M., three independent experiments in triplicates
T1 construct: expressed in transfected cells; host or cells: HEK293T

NPFFR1 S202A = target: T2, NPFFR1 S202A (Homo sapiens, UniProt Q9GZQ6, S202A); assay: GloSensor cAMP accumulation assay, NPFFR1 S202A; details: HEK293T, Gi signaling, mean ± S.E.M., three independent experiments in triplicates
T2 construct: expressed in transfected cells; host or cells: HEK293T

NPFFR1 Y216A = target: T3, NPFFR1 Y216A (Homo sapiens, UniProt Q9GZQ6, Y216A); assay: GloSensor cAMP accumulation assay, NPFFR1 Y216A; details: HEK293T, Gi signaling, three independent experiments in triplicates
T3 construct: expressed in transfected cells; host or cells: HEK293T

NPFFR1 W287F = target: T4, NPFFR1 W287F (Homo sapiens, UniProt Q9GZQ6, W287F); assay: GloSensor cAMP accumulation assay, NPFFR1 W287F; details: HEK293T, Gi signaling, three independent experiments in triplicates
T4 construct: expressed in transfected cells; host or cells: HEK293T

NPFFR1 H315A = target: T5, NPFFR1 H315A (Homo sapiens, UniProt Q9GZQ6, H315A); assay: GloSensor cAMP accumulation assay, NPFFR1 H315A; details: HEK293T, Gi signaling, mean ± S.E.M., three independent experiments in triplicates
T5 construct: expressed in transfected cells; host or cells: HEK293T

NPFFR1 Q123A = target: T6, NPFFR1 Q123A (Homo sapiens, UniProt Q9GZQ6, Q123A); assay: GloSensor cAMP accumulation assay, NPFFR1 Q123A; details: HEK293T, Gi signaling, mean ± S.E.M., three independent experiments in triplicates
T6 construct: expressed in transfected cells; host or cells: HEK293T

NPFFR1 W287L = target: T7, NPFFR1 W287L (Homo sapiens, UniProt Q9GZQ6, W287L); assay: GloSensor cAMP accumulation assay, NPFFR1 W287L; details: HEK293T, Gi signaling, three independent experiments in triplicates
T7 construct: expressed in transfected cells; host or cells: HEK293T

NPFFR1 T100A = target: T8, NPFFR1 T100A (Homo sapiens, UniProt Q9GZQ6, T100A); assay: GloSensor cAMP accumulation assay, NPFFR1 T100A; details: HEK293T, Gi signaling, mean ± S.E.M., three independent experiments in triplicates
T8 construct: expressed in transfected cells; host or cells: HEK293T

NPFFR1 E185A = target: T9, NPFFR1 E185A (Homo sapiens, UniProt Q9GZQ6, E185A); assay: GloSensor cAMP accumulation assay, NPFFR1 E185A; details: NPFFR1 E185A (expression level 34.94 %WT), HEK293T, Gi signaling; three independent experiments in triplicates
T9 construct: expressed in transfected cells; host or cells: HEK293T

NPFFR1 W287A = target: T10, NPFFR1 W287A (Homo sapiens, UniProt Q9GZQ6, W287A); assay: GloSensor cAMP accumulation assay, NPFFR1 W287A; details: HEK293T, Gi signaling, three independent experiments in triplicates
T10 construct: expressed in transfected cells; host or cells: HEK293T

NPFFR1 T217A = target: T11, NPFFR1 T217A (Homo sapiens, UniProt Q9GZQ6, T217A); assay: GloSensor cAMP accumulation assay, NPFFR1 T217A; details: HEK293T, Gi signaling, three independent experiments in triplicates
T11 construct: expressed in transfected cells; host or cells: HEK293T

NPFFR1 W204A = target: T12, NPFFR1 W204A (Homo sapiens, UniProt Q9GZQ6, W204A); assay: GloSensor cAMP accumulation assay, NPFFR1 W204A; details: NPFFR1 W204A (expression level 33.06 %WT), HEK293T, Gi signaling; three independent experiments in triplicates
T12 construct: expressed in transfected cells; host or cells: HEK293T

Question: Which results are given for CC(C)C[C@H](NC(=O)[C@H](CC(N)=O)NC(=O)[C@@H]1CCCN1C(=O)[C@@H](N)C(C)C)C(=O)N1CCC[C@H]1C(=O)N[C@@H](CCC(N)=O)C(=O)N[C@@H](CCCNC(=N)N)C(=O)N[C@@H](Cc1ccccc1)C(N)=O [RFRP-3, RF-amide related peptide-3]?
Answer: pEC50 (NPFFR1 D103A): < 4.52; pEC50 (NPFFR1 S202A): 9.70; pEC50 (NPFFR1 Y216A): < 4.52; pEC50 (NPFFR1 W287F): < 4.52; pEC50 (NPFFR1 H315A): < 4.52; pEC50 (NPFFR1 Q123A): 8.20; pEC50 (NPFFR1 W287L): < 4.52; pEC50 (NPFFR1 T100A): 6.70; pEC50 (NPFFR1 E185A): < 4.52; pEC50 (NPFFR1 W287A): < 4.52; pEC50 (NPFFR1 T217A): < 4.52; pEC50 (NPFFR1 W204A): < 4.52
